The source of these data is ChEMBL document CHEMBL3758094, “Thioxocoumarins Show an Alternative Carbonic Anhydrase Inhibition Mechanism Compared to Coumarins” (J Med Chem, 2016).

By pKi is commonly meant −log10 of the Ki, conventionally taken in molar units. A higher pKi goes with a small Ki.

In the assay the target is Carbonic anhydrase 9 (Homo sapiens, UniProt Q16790).

pKi: −log10 of the molar value.

In the case of `S=c1ccc2ccccc2s1`, the pKi is 4.71.
